For one compound, Ki and IC50 results are on record in patent US11142525B2 (Pfizer Inc., priority 2018, dated 2021).

Amino acid sequences for entries named in this document (tags omitted).
UniProt Q92918, whole entry: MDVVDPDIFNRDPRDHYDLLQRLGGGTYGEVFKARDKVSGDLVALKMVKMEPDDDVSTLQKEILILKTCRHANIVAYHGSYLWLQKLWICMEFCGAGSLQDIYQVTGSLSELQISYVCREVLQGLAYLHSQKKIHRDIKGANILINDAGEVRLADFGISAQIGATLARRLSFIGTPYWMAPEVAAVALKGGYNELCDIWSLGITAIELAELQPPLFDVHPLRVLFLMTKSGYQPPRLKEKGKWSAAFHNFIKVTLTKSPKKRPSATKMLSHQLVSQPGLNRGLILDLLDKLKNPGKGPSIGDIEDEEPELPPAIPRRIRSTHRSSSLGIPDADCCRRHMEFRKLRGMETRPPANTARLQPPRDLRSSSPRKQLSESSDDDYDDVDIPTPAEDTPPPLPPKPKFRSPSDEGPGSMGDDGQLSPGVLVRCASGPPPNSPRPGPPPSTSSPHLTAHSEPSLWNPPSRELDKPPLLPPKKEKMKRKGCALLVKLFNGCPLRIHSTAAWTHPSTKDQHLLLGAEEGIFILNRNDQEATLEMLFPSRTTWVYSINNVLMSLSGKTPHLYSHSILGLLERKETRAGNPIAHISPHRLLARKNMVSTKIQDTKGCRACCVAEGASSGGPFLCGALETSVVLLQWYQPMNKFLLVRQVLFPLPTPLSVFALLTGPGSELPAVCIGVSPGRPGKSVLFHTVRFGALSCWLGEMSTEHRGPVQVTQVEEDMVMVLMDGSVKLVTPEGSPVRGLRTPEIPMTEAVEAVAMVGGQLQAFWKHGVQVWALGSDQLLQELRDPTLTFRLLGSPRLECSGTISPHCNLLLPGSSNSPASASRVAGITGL

For test [1], the target named is human full-length recombinant HPK1 (Homo sapiens (Human), UniProt Q92918). Description: HPK1 biochemical enzyme assay, microfluidic mobility shift assay (MSA). The conditions noted are these: read-out: HPK1 Enzyme Assay_Ki.
For test [2], the system named is phospho-SLP-76 (Ser376) in Jurkat cells. In words: Phospho-SLP-76 (Ser376) Homogeneous Time Resolved Fluorescence (HTRF) assay in Jurkat cells. The conditions noted are these: read-out: SLP76 Assay_IC50, Phospho-SLP-76 (Ser376) HTRF, anti-CD3 stimulation. (In general: Time-resolved FRET reads energy transfer from a long-lived donor to a nearby acceptor.)

The structures appear in SMILES notation.

For the compound `CNCc1nc(N2CCC[C@H]2C)cc2c1CN(c1cccc(-c3nnc(C)n3CC(C)C)n1)C2=O`, the Ki in test [1] came to 0.22 nM. The IC50 in test [2] worked out at 640 nM.
